Key:
Nociceptin receptor [1] = target: T1, Nociceptin receptor (Homo sapiens, UniProt P41146); assay: Displacement of [3H]Nociceptin from human recombinant NOP receptor expressed in CHO cells by scintillation counter
[2] = target: Kappa-type opioid receptor (Homo sapiens, UniProt P41145); conditions: cho
Mu-type opioid receptor = Mu-type opioid receptor (Homo sapiens, UniProt P35372); format: cell membranes; conditions: cho
[3] = target: Delta-type opioid receptor (Homo sapiens, UniProt P41143); conditions: cho
Nociceptin receptor [4] = target: T1, Nociceptin receptor; assay: Agonist activity at human cloned NOP receptor expressed in CHO cell membranes after 30 mins by [35S]GTPgammaS binding assay

Q: For `CCn1c(=O)n([C@@H]2CCN(CC3CCCCCCC3)C[C@H]2CO)c2ccccc21`, which Ki (Nociceptin receptor [1]) is on record?
A: Its Ki is 0.403 nM.

Q: And the Ki [2]?
A: The Ki was greater than 400 nM.

Q: And the Ki (Mu-type opioid receptor)?
A: Its Ki is greater than 400 nM.

Q: And the Ki [3]?
A: The Ki was greater than 400 nM.

Q: How did the Ki (Nociceptin receptor [1]) turn out when `CNC(=O)Cn1c(=O)n(C2CCN([C@@H]3Cc4cccc5cccc3c45)CC2)c2ccccc21` was run?
A: Its Ki is 0.336 nM.

Q: And the EC50 (Nociceptin receptor [4])?
A: Its EC50 is 1.6 nM.

Q: What about the Ki [2] of the same compound?
A: The Ki was greater than 400 nM.

Q: And the Ki (Mu-type opioid receptor)?
A: Its Ki is greater than 400 nM.

Q: What about the Ki [3] of the same compound?
A: The Ki was greater than 400 nM.

Q: What does the source list for `COC(=O)CN1CN(c2ccccc2)C2(CCN(Cc3cccc4ccccc34)CC2)C1=O`?
A: Ki (Nociceptin receptor [1]): 12.9 nM; EC50 (Nociceptin receptor [4]): 121 nM; Ki [2]: > 400 nM; Ki (Mu-type opioid receptor): > 400 nM; Ki [3]: > 400 nM
